These results are taken from publication PMC12836348, “Alanine Mutagenesis Identifies Specific Amino Acids of Nemertide Alpha‑1 Activity and Its Binding to Target Receptors” (Journal of Natural Products, 2025).

Protein sequences, listed by entry. Tags and fused reporters are not part of them.
UniProt P15390, whole entry: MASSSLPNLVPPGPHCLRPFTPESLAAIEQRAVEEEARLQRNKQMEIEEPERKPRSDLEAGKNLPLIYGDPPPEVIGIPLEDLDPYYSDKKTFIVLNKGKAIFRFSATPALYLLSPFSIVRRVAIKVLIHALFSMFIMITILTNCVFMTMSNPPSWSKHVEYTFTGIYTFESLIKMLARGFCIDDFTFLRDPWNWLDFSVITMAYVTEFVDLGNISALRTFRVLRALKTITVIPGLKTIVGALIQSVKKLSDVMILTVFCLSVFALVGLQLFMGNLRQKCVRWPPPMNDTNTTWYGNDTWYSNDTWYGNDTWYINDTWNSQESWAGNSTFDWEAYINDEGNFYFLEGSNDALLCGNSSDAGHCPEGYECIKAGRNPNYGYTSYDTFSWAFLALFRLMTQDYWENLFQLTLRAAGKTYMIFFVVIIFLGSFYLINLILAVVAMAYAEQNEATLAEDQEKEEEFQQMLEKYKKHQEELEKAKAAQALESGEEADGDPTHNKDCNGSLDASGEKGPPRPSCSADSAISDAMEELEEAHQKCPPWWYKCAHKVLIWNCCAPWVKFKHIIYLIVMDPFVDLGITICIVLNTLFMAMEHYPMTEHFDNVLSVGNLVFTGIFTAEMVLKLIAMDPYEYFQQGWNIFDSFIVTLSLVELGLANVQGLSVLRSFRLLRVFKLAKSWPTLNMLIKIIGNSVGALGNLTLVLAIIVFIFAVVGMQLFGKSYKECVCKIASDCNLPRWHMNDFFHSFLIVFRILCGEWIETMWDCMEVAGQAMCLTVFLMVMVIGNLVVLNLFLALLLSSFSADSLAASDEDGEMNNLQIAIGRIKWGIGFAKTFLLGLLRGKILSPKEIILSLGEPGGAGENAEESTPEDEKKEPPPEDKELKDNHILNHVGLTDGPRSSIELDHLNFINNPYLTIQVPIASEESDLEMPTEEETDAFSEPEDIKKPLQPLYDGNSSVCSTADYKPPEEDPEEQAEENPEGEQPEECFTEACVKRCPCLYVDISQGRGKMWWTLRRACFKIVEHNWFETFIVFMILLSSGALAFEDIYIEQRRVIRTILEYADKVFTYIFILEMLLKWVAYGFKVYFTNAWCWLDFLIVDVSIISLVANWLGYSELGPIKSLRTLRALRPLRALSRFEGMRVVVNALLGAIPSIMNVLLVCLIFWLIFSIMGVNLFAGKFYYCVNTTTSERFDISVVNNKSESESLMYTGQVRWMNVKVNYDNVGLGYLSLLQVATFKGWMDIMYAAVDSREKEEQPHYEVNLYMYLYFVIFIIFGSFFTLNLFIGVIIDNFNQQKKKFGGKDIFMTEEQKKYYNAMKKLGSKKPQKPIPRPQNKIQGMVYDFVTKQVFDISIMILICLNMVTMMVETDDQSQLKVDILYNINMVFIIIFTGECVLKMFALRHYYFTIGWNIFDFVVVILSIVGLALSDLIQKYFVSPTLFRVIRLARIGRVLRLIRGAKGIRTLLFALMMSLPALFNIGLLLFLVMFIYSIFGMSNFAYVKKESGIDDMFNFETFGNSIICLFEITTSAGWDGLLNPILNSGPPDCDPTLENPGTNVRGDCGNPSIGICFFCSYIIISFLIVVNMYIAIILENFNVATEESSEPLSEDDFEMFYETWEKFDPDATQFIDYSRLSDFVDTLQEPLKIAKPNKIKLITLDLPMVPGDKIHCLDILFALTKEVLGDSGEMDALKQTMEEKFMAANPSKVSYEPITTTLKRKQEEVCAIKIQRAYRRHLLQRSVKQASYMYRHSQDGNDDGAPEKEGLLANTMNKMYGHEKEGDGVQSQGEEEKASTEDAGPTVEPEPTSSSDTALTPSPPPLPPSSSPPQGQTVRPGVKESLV
UniProt Q14524, whole entry: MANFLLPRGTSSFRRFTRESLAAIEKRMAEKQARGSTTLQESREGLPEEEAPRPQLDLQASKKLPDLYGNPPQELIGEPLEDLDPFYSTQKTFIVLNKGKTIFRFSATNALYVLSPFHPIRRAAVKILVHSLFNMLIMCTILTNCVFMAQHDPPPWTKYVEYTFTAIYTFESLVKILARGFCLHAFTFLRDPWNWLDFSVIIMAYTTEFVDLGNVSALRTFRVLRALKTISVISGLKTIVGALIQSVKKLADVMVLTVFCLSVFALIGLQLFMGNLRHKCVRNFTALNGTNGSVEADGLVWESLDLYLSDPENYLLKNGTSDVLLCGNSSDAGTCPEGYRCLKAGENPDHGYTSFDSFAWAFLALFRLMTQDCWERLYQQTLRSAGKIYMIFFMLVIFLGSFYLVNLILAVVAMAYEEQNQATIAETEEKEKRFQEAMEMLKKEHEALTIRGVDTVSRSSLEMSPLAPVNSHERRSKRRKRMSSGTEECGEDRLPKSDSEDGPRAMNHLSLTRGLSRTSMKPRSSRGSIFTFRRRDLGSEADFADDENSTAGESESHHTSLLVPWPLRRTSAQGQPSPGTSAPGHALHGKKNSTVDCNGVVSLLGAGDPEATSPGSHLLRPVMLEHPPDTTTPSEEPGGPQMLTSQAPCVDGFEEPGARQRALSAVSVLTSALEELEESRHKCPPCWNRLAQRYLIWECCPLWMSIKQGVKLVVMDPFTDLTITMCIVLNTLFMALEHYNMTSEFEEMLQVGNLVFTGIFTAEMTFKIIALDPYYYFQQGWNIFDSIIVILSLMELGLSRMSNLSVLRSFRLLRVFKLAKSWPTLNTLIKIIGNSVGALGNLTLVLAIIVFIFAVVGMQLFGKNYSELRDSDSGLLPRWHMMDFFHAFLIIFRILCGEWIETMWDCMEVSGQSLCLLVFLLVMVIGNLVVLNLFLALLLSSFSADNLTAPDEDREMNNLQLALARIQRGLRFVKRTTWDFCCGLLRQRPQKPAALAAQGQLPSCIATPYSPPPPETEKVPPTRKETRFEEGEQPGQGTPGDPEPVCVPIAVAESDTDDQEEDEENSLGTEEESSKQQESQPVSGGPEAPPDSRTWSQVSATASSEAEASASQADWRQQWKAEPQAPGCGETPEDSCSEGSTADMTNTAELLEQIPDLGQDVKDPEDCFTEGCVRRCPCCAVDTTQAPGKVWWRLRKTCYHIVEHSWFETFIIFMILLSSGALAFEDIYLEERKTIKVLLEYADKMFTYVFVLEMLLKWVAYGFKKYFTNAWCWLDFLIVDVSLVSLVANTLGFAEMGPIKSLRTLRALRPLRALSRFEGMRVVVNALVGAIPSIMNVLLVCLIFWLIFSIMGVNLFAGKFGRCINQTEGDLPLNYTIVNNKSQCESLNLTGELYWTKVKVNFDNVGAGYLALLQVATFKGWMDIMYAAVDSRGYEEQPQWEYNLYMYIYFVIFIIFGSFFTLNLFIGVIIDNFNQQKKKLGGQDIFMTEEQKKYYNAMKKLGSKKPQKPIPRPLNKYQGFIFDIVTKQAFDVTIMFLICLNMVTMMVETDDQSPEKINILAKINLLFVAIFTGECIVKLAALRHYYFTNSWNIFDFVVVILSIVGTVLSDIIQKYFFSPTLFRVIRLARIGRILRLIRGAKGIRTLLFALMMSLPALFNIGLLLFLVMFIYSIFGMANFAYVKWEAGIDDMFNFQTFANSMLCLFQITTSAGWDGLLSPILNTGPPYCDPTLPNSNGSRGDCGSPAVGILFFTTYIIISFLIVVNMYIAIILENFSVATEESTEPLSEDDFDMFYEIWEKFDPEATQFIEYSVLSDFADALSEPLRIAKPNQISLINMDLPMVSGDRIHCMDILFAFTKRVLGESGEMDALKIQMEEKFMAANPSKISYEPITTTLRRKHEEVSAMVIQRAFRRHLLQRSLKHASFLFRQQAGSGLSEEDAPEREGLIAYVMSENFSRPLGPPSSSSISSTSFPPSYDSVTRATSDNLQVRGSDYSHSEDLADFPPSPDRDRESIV
UniProt Q9UQD0, whole entry: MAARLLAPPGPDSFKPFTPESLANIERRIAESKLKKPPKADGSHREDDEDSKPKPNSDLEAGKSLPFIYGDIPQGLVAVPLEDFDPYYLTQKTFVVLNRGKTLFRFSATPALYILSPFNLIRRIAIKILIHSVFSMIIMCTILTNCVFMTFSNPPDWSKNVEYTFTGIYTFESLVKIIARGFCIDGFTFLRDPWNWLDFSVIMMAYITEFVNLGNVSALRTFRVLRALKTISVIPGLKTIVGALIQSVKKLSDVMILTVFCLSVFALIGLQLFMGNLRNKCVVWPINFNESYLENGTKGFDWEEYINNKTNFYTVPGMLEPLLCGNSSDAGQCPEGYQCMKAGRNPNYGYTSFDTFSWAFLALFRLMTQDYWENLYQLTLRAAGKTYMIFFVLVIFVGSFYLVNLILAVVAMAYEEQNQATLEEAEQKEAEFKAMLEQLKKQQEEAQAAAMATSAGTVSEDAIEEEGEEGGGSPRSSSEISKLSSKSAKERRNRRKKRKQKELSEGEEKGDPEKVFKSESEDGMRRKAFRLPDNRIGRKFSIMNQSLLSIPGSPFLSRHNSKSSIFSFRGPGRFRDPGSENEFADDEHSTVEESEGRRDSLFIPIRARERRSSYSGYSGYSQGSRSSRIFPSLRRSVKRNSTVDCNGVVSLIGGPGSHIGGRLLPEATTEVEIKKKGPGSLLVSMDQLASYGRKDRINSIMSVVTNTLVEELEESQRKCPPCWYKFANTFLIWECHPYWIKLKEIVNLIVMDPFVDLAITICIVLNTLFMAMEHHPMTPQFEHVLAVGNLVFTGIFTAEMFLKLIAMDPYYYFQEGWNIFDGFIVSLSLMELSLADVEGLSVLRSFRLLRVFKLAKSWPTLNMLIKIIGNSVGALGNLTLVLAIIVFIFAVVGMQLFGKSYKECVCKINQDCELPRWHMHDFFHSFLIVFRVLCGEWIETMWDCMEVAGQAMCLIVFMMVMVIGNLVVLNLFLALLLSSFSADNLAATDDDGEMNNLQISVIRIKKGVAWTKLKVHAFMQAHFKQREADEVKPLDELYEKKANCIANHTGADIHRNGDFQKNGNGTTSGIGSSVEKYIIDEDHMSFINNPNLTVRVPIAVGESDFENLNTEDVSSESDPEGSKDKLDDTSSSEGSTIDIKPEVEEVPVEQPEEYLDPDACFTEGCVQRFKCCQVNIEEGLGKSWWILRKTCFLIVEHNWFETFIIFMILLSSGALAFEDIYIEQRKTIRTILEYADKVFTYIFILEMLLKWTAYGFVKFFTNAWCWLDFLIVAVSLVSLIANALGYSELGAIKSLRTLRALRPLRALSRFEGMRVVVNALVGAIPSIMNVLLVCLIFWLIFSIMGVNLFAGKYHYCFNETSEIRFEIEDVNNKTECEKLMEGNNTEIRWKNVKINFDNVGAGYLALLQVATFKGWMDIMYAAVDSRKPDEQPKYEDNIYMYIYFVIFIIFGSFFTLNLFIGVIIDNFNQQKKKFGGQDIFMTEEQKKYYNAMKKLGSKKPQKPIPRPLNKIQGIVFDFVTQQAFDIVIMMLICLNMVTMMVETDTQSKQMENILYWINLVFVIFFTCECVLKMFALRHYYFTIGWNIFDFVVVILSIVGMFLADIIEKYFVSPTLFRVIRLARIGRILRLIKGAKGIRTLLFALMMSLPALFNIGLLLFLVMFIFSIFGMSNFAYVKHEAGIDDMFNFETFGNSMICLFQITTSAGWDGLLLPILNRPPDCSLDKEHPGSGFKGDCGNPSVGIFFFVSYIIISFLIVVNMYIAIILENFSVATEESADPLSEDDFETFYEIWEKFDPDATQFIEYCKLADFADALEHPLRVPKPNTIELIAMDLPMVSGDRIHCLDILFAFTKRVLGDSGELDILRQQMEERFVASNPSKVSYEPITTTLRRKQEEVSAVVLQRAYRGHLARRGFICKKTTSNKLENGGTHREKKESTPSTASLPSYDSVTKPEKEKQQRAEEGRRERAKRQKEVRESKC

Entries after “also recorded” stand apart in the source; their conditions may differ.

The test system of one test is BgNav1. Put plainly: Two-electrode voltage clamp, BgNav1 expressed in Xenopus laevis oocytes. The test is classed as cell-based, Blattella germanica. The settings on record: ex vivo, I30ms/Ipeak, Hill fit, n ≥ 3, highest tested concentration 50 μM. (In two-electrode clamp one electrode senses voltage and the other passes current.)
For the next test, the target named is T1, rNaV1.3 (Rattus norvegicus, UniProt P08104).
T1 construct: expressed in transfected cells; host or cells: Xenopus laevis oocytes (cRNA injection)
Put plainly: Two-electrode voltage clamp, Nav1.3 in Xenopus laevis oocytes. The format is cell-based. The settings on record: ex vivo, Hill fit, n ≥ 3, highest tested concentration 50 μM.

The target of another test is T2, rNaV1.4 (Rattus norvegicus, UniProt P15390).
T2 construct: expressed in transfected cells; host or cells: Xenopus laevis oocytes (cRNA injection)
Put plainly: Two-electrode voltage clamp, Nav1.4 in Xenopus laevis oocytes. The test is classed as cell-based. The settings on record: ex vivo, Hill fit, n ≥ 3, highest tested concentration 50 μM.

In a further test the target is T3, hNaV1.5 (Homo sapiens, UniProt Q14524).
T3 construct: expressed in transfected cells; host or cells: Xenopus laevis oocytes (cRNA injection)
Put plainly: Two-electrode voltage clamp, Nav1.5 in Xenopus laevis oocytes. The format is cell-based. The protocol:
(§1) For the expression of NaV channels (hNav1.1, rNaV1.2, rNaV1.3, rNaV1.4, hNaV1.5, hNaV1.6, hNav1.7, and the insect channel BgNaV1) in Xenopus laevis oocytes, the linearized plasmids were transcribed using the T7 or SP6 mMESSAGE-mMACHINE transcription kit (Ambion, Carlsbad, CA, USA). The harvesting of stage V and VI oocytes from an anaesthetized female X. laevis frog was described previously. , Oocytes were injected with 50 nL of cRNA at a concentration of 1 ng/nL using a microinjector (Drummond Scientific, Broomall, PA, USA). The oocytes were incubated in a solution containing 96 mM NaCl, 2 mM KCl, 1.8 mM CaCl2, 2 mM MgCl2, and 5 mM HEPES (pH 7.4), supplemented with 50 mg/L gentamycin sulfate. Two-electrode voltage-clamp recordings were performed at room temperature (18–22 °C) using a Geneclamp 500 amplifier (Molecular Devices, Downingtown, PA, USA) controlled by a pClamp data acquisition system (Axon Instruments, Union City, CA, USA). Whole-cell currents from oocytes were recorded 1–4 days after injection. The bath solution composition was 96 mM NaCl, 2 mM KCl, 1.8 mM CaCl2, 2 mM MgCl2, and 5 mM HEPES (pH 7.4). Voltage and current electrodes were filled with 3 M KCl. The resistances of both electrodes were kept between 0.8 and 1.5 MΩ. The elicited Nav channel currents were filtered at 1 kHz and sampled at 20 kHz by using a four-pole low-pass Bessel filter. Leak subtraction was performed using a −P/4 protocol. For the electrophysiological analysis of toxins, a series of protocols was applied from a holding potential of −90 mV with a start-to-start interval of 0.2 Hz. Sodium current traces were evoked by 100 ms depolarizations to V max (the voltage corresponding to maximum sodium current in control conditions).
(§2) To assess the concentration–response relationships, data were fitted with the Hill equation: y = 100/[1 + (EC50/[toxin])^ h ], where y is the amplitude of the toxin-induced effect (y = I 30 ms/I peak where I 30 ms is the current value at 30 ms in the presence of toxin and I peak is the peak current amplitude in control conditions), EC50 is the toxin concentration at half-maximal efficacy, [toxin] is the toxin concentration, and h is the Hill coefficient. Potassium and calcium currents were evoked by a 500 ms depolarization to the voltage corresponding to the maximal activation of the channels in control conditions from a holding potential of −90 mV. Elicited currents were sampled at 1 kHz and filtered at 0.5 kHz. For nAChR experiments, the oocytes were clamped at a holding potential of −70 mV and continuously superfused with ND96 via gravity-fed tubes at 0.1–0.2 mL min^–1, with 5 min incubation times for the bath-applied peptides. ACh was applied via gravity-fed tubes until a peak current amplitude was obtained (1–3 s), with 1–2 min washout periods between applications. The nAChR were gated by a particular time duration pulse of ACh for the respective nAChR subtype at 2 mL min^–1. Data were sampled at 500 Hz and filtered at 200 Hz. ASIC1a currents were measured in ND96 solutions at a pH of 7.4 and 4.5, at a holding potential of −70 mV during 400 s, and the data were filtered at 20 Hz. EnaC currents were measured by clamping oocytes at a holding potential of −60 mV and perfusing with low- (1 mM) and high- (96 mM) sodium ND96. Opioid currents were measured by clamping the potential to −70 mV and changing the perfusion solution from ND96 to high-potassium (HK) solution composed of 96 mM KCl, 2 mM NaCl, 1 mM MgCl2, 1.8 mM CaCl2, and 5 mM HEPES, with a final pH of 7.5. The HK-evoked increase in inward K^+ currents represents a “basal” K^+ current (IK, basal). In the presence of HK, 0.2 μM morphine was applied to oocytes and then washed out by HK. TRPV1 and TRPA1 currents were continuously monitored in a perfusing ND96 solution, following a protocol at −90 mV for 400 s. The sampling rate was set at 100 Hz, and the signals were filtered at 20 Hz. One μM capsaicin and 10 μM capsazepine were used for TRPV1. […]

For a further test, the target named is T4, hNaV1.6 (Homo sapiens, UniProt Q9UQD0).
T4 construct: expressed in transfected cells; host or cells: Xenopus laevis oocytes (cRNA injection)
Put plainly: Two-electrode voltage clamp, Nav1.6 in Xenopus laevis oocytes. The settings on record: two-electrode voltage clamp in Xenopus laevis oocytes, Hill fit, n ≥ 3; highest tested concentration 50 μM. The format is cell-based. As for the experimental part:
as §1, §2

Where [1] appears, read: ex vivo, two-electrode voltage clamp in Xenopus laevis oocytes, Hill fit, n ≥ 3, highest tested concentration 50 μM.

A word on the EC50: it is the concentration giving half of the maximal effect. For `CC[C@H](C)[C@@H]1NC(=O)[C@@H](NC(=O)CN)CSSC[C@@H]2NC(=O)[C@@H]3CSSC[C@@H](C(=O)N[C@@H](CC(N)=O)C(=O)N4C[C@H](O)C[C@H]4C(=O)N4C[C@H](O)C[C@H]4C(=O)N[C@@H](CC(N)=O)C(=O)N[C@@H](CCC(N)=O)C(=O)O)NC(=O)[C@H](CCCCN)NC(=O)[C@H](Cc4ccccc4)NC(=O)[C@H](CC(N)=O)NC(=O)[C@H](Cc4c[nH]c5ccccc45)NC(=O)CNC(=O)[C@H](CSSC[C@H](NC(=O)[C@H](CCCCN)NC(=O)[C@H](CO)NC(=O)CNC(=O)[C@H]([C@@H](C)O)NC(=O)[C@H](C)NC1=O)C(=O)N[C@@H]([C@@H](C)O)C(=O)N[C@@H](CC(C)C)C(=O)N[C@@H](CO)C(=O)N[C@@H](CCCCN)C(=O)NCC(=O)N3)NC(=O)[C@H](CC(N)=O)NC(=O)[C@H](CCCCN)NC(=O)[C@H]([C@@H](C)O)NC2=O` [Peptide F8K], the EC50 with BgNav1 worked out at 91.9 ± 8.4 nM; on rNaV1.3, 467 ± 64.9 nM; at rNaV1.4, 1200 ± 147 nM; at hNaV1.5 (setting [1]), 224 ± 6.33 nM.

Consider `CC[C@H](C)[C@@H]1NC(=O)[C@@H](NC(=O)CN)CSSC[C@@H]2NC(=O)[C@@H]3CSSC[C@@H](C(=O)N[C@@H](CC(N)=O)C(=O)N4C[C@H](O)C[C@H]4C(=O)N4C[C@H](O)C[C@H]4C(=O)N[C@@H](CC(N)=O)C(=O)N[C@@H](CCC(N)=O)C(=O)O)NC(=O)[C@H](CCCCN)NC(=O)[C@H](C)NC(=O)[C@H](CC(N)=O)NC(=O)[C@H](Cc4c[nH]c5ccccc45)NC(=O)CNC(=O)[C@H](CSSC[C@H](NC(=O)[C@H](Cc4ccccc4)NC(=O)[C@H](CO)NC(=O)CNC(=O)[C@H]([C@@H](C)O)NC(=O)[C@H](C)NC1=O)C(=O)N[C@@H]([C@@H](C)O)C(=O)N[C@@H](CC(C)C)C(=O)N[C@@H](CO)C(=O)N[C@@H](CCCCN)C(=O)NCC(=O)N3)NC(=O)[C@H](CC(N)=O)NC(=O)[C@H](CCCCN)NC(=O)[C@H]([C@@H](C)O)NC2=O` [Peptide F24A], for which the EC50 in the test with BgNav1 was found to be 1050 ± 196 nM. For the same compound, the “EC50 Nav1.4” value at rNaV1.4 is given as “no detectable activity”. Further, at hNaV1.6, the “EC50 Nav1.6” value was “inactive at the tested concentration”.

Take `CC[C@H](C)[C@@H]1NC(=O)[C@@H](NC(=O)CN)CSSC[C@@H]2NC(=O)[C@@H]3CSSC[C@@H](C(=O)N[C@@H](CC(N)=O)C(=O)N4C[C@H](O)C[C@H]4C(=O)N4C[C@H](O)C[C@H]4C(=O)N[C@@H](CC(N)=O)C(=O)N[C@@H](CCC(N)=O)C(=O)O)NC(=O)[C@H](CCCCN)NC(=O)[C@H](Cc4ccccc4)NC(=O)[C@H](CC(N)=O)NC(=O)[C@H](Cc4c[nH]c5ccccc45)NC(=O)CNC(=O)[C@H](CSSC[C@H](NC(=O)[C@H](Cc4ccccc4)NC(=O)[C@H](CO)NC(=O)CNC(=O)[C@H]([C@@H](C)O)NC(=O)[C@H](C)NC1=O)C(=O)N[C@@H]([C@@H](C)O)C(=O)N[C@@H](C)C(=O)N[C@@H](CO)C(=O)N[C@@H](CCCCN)C(=O)NCC(=O)N3)NC(=O)[C@H](CC(N)=O)NC(=O)[C@H](CCCCN)NC(=O)[C@H]([C@@H](C)O)NC2=O` [Peptide L11A]: the EC50 with BgNav1 worked out at 298 ± 35.2 nM. Moreover, on hNaV1.5 (setting [1]), the “EC50 Nav1.5” value was “in the same range as alpha-1”.

Consider `CC[C@H](C)[C@@H]1NC(=O)[C@@H](NC(=O)CN)CSSC[C@@H]2NC(=O)[C@@H]3CSSC[C@@H](C(=O)N[C@@H](CC(N)=O)C(=O)N4C[C@H](O)C[C@H]4C(=O)N4C[C@H](O)C[C@H]4C(=O)N[C@@H](CC(N)=O)C(=O)N[C@@H](CCC(N)=O)C(=O)O)NC(=O)[C@H](CCCCN)NC(=O)[C@H](Cc4ccccc4)NC(=O)[C@H](CC(N)=O)NC(=O)[C@H](Cc4c[nH]c5ccccc45)NC(=O)CNC(=O)[C@H](CSSC[C@H](NC(=O)[C@H](Cc4ccccc4)NC(=O)[C@H](C)NC(=O)CNC(=O)[C@H]([C@@H](C)O)NC(=O)[C@H](C)NC1=O)C(=O)N[C@@H]([C@@H](C)O)C(=O)N[C@@H](CC(C)C)C(=O)N[C@@H](CO)C(=O)N[C@@H](CCCCN)C(=O)NCC(=O)N3)NC(=O)[C@H](CC(N)=O)NC(=O)[C@H](CCCCN)NC(=O)[C@H]([C@@H](C)O)NC2=O` [Peptide S7A], for which a half-maximal effect in the test on BgNav1 (EC50) was put at 35.9 ± 13.3 nM. Also, the “EC50 Nav1.5” value on hNaV1.5 (setting [1]) is on record as “in the same range as alpha-1”. Moreover, on hNaV1.6, the “EC50 Nav1.6” value is listed as “slightly higher activity”.

Turning to `CC[C@H](C)[C@@H]1NC(=O)[C@@H](NC(=O)CN)CSSC[C@@H]2NC(=O)[C@@H]3CSSC[C@@H](C(=O)N[C@@H](CC(N)=O)C(=O)N4C[C@H](O)C[C@H]4C(=O)N4C[C@H](O)C[C@H]4C(=O)N[C@@H](CC(N)=O)C(=O)N[C@@H](CCC(N)=O)C(=O)O)NC(=O)[C@H](CCCCN)NC(=O)[C@H](Cc4ccccc4)NC(=O)[C@H](CC(N)=O)NC(=O)[C@H](Cc4c[nH]c5ccccc45)NC(=O)CNC(=O)[C@H](CSSC[C@H](NC(=O)[C@H](Cc4ccccc4)NC(=O)[C@H](CO)NC(=O)CNC(=O)[C@H]([C@@H](C)O)NC(=O)[C@H](C)NC1=O)C(=O)N[C@@H](C)C(=O)N[C@@H](CC(C)C)C(=O)N[C@@H](CO)C(=O)N[C@@H](CCCCN)C(=O)NCC(=O)N3)NC(=O)[C@H](CC(N)=O)NC(=O)[C@H](CCCCN)NC(=O)[C@H]([C@@H](C)O)NC2=O` [Peptide T10A], the EC50 with BgNav1 was found to be 155 ± 132 nM. Besides, the “fold higher activity on Nav1.5 than alpha-1” value at hNaV1.5 is on record as 1.2 fold. The “EC50 Nav1.6” value on hNaV1.6 is “slightly higher activity”.

As to `CC[C@H](C)[C@@H]1NC(=O)[C@@H](NC(=O)CN)CSSC[C@@H]2NC(=O)[C@@H]3CSSC[C@@H](C(=O)N[C@@H](CC(N)=O)C(=O)N4C[C@H](O)C[C@H]4C(=O)N4C[C@H](O)C[C@H]4C(=O)N[C@@H](CC(N)=O)C(=O)N[C@@H](CCC(N)=O)C(=O)O)NC(=O)[C@H](CCCCN)NC(=O)[C@H](Cc4ccccc4)NC(=O)[C@H](CC(N)=O)NC(=O)[C@H](Cc4c[nH]c5ccccc45)NC(=O)CNC(=O)[C@H](CSSC[C@H](NC(=O)[C@H](Cc4ccccc4)NC(=O)[C@H](CO)NC(=O)CNC(=O)[C@H]([C@@H](C)O)NC(=O)[C@H](C)NC1=O)C(=O)N[C@@H]([C@@H](C)O)C(=O)N[C@@H](CC(C)C)C(=O)N[C@@H](CO)C(=O)N[C@@H](CCCCN)C(=O)NCC(=O)N3)NC(=O)[C@H](CC(N)=O)NC(=O)[C@H](CCCCN)NC(=O)[C@H](C)NC2=O` [Peptide T17A], a half-maximal effect in the test on BgNav1 (EC50) was put at 825.9 ± 4 nM. Moreover, on rNaV1.3, the “EC50 Nav1.3” value is “no detectable activity”. Also, at rNaV1.4, the “EC50 Nav1.4” value was “no detectable activity”. Besides, on hNaV1.5 (setting [1]), the “EC50 Nav1.5” value was “no detectable activity; also recorded: inactive at the tested concentration”.
